This is an account of results in PubChem BioAssay AID706 (SRMLSC, 2007).

The structures appear in SMILES notation. This is a selection; strong and weak results do not stand in their true shares. Activity calls are given as the source filed them.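 The calls were made as follows: active = growth inhibition above a set limit, 3 SD over mean compound inhibition, in both replicates (cut at about 43% in these data); inconclusive = above the limit in only one replicate; inactive = at or below the limit in both replicates.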

This assay in a line: S. cerevisiae growth inhibition in restrictive medium, OD615, pilot screen, restrictive growth control, yeast lifespan reduction project (AID 706).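 Also: modified DeaD lifespan yeast strain shifted to restrictive glucose medium.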 Conditions: OD615, 48 h, at 10 µM, active compounds read high. Summed up: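 material = engineered S. cerevisiae DeaD strain | medium = glucose-based CSMM-D restrictive medium | times = 4 h pre-incubation, 48 h exposure at 30 °C | technique = OD615 absorbance reading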
For `COC(=O)c1cc2c(s1)N=C(c1ccccc1)N(C)P2(=O)N1CCOCC1` (stereo unspecified), the growth inhibition is inactive: -28%.
